# In publication PMC4387200 (Toxicology and applied pharmacology, 2015):
# Target: T1, Human PXR (Homo sapiens, UniProt O75469)
# T1 sequence (O75469 107-434): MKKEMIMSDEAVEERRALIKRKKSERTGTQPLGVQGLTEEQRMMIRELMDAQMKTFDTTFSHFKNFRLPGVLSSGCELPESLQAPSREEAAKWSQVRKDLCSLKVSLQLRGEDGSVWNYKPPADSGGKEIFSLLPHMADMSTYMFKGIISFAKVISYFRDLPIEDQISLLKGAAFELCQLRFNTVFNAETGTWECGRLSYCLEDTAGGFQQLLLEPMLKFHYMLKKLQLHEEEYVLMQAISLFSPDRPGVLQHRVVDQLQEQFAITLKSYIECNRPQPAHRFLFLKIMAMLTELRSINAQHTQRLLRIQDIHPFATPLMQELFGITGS
substance,measurement,value
Hexabromocyclododecane,Human PXR RECh20,2.6 µM
